# Results as given in PubChem BioAssay AID777 (Sanford-Burnham Center for Chemical Genomics, 2007).
# Amino acid sequences for entries named in this document (tags omitted).
# UniProt P11712, whole entry: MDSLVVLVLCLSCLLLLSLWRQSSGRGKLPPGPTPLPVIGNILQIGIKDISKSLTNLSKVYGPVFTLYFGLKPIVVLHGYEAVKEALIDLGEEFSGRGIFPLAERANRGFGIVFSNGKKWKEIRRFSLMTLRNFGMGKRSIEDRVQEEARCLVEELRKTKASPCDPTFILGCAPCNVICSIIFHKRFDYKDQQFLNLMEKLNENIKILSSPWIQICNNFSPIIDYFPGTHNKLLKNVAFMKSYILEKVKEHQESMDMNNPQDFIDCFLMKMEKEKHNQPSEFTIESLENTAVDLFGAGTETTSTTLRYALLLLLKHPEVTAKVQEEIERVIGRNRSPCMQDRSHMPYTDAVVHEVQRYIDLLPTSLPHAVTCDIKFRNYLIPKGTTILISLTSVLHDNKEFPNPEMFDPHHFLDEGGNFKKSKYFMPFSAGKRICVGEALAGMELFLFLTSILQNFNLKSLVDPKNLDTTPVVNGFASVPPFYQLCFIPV
# Only a part is listed here, and it is no random draw. Active and inactive are the calls of the source.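 How the source made its calls: active means blocking of liver enzyme CYP2C9 beyond about 50% at 5 µM (limit read from the data); inactive means the rest.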
# Molecular target: Cytochrome P450 2C9 (Homo sapiens) (UniProt P11712)
# Test: blockers of cytochrome P450 2C9 activity – biochemical, luminescence, ADME assay, primary screen (AID 777)
# Details: CYP2C9 Supersomes, luciferin-H conversion, at 5 µM, stronger effect = higher value
row,Structure (SMILES),inhibition
1,Cc1cc(C)cc(OP(C)(=O)Nc2ccc(C)cc2C)c1 (stereo not given),inactive: 36.6%
2,Cc1ccc(C)c(NP(C)(=O)Oc2ccccc2)c1 (stereo not given),inactive: -8.8%
3,Cc1cc(C)cc(OP(C)(=O)Nc2ccccn2)c1 (stereo not given),inactive: 9%
4,Cc1nc2ccc3ccccc3c2s1.O=[N+]([O-])c1cc([N+](=O)[O-])c(O)c([N+](=O)[O-])c1,inactive: 14.6%
5,CP(=O)(NC(=O)Nc1ccccc1)Oc1ccccc1 (stereo not given),inactive: -17.7%
6,CP(=O)(Nc1ccccn1)Oc1ccc(Cl)cc1 (stereo not given),inactive: 1.3%
7,CCOP(C)(=S)SCC(=O)NC(C)C(=O)O (stereo not given),active: 54.7%
8,CP(=S)(Nn1cnnc1)Oc1ccccc1 (stereo not given),inactive: 29.1%
9,COc1ccc(OP(C)(=O)Nc2cccc(F)c2)cc1 (stereo not given),active: 54.9%
10,Cc1ccc(NP(C)(=O)Oc2ccccc2)c(C)c1 (stereo not given),inactive: 28.1%
11,COc1ccccc1OP(C)(=O)Nc1ccc(C)cc1 (stereo not given),inactive: 11.5%
12,COc1ccc(OP(C)(=O)Nc2ccccn2)cc1 (stereo not given),inactive: 1.2%
13,CN(C)CCOC(=O)C(O)(c1ccccc1)C1CCCC1 (stereo not given),inactive: 12.2%
14,COc1ccccc1OP(C)(=O)Nc1ccc(C)cc1C (stereo not given),inactive: -3.7%
15,CP(=O)(Nc1ccccn1)Oc1ccccc1 (stereo not given),inactive: -6.8%
16,CCc1ccc(OP(C)(=O)O)cc1,inactive: 1.7%
17,Cc1c(NP(C)(=O)Oc2ccc(C(C)C)cc2)c(=O)n(-c2ccccc2)n1C (stereo not given),inactive: 28%
18,COc1ccccc1OP(C)(=O)Nc1ccc(C)c(C)c1 (stereo not given),inactive: -8%
19,Cc1nc2ccc3ccccc3c2o1.O=[N+]([O-])c1cc([N+](=O)[O-])c(O)c([N+](=O)[O-])c1,inactive: 15.5%
20,CP(=O)(OC12CC3CC(CC(C3)C1)C2)OC12CC3CC(CC(C3)C1)C2,inactive: -6.5%
21,COc1ccccc1OP(C)(=O)Nc1c(C)n(C)n(-c2ccccc2)c1=O (stereo not given),inactive: -1%
22,CP(=O)(Oc1ccccc1)N1CCOC1=O (stereo not given),inactive: -11.8%
23,CCN(CC)CC(O)COC(=O)C(O)(c1ccccc1)C1CCCCC1 (stereo not given),inactive: 3.6%
24,CC(C)(C)c1ccc(OP(C)(=O)O)cc1,inactive: 0.2%
25,CCOP(C)(=S)SCC(=O)NC(C)(CC)C(=O)O (stereo not given),inactive: 49.6%
26,Cc1ccccc1NP(C)(=O)Nc1ccccc1C,inactive: 23.3%
27,CN(C)CCOC(=O)C(O)(c1ccccc1)C1CCCCC1 (stereo not given),inactive: 8.2%
28,COc1ccc(OP(C)(=O)Nc2cccc(Br)c2)cc1 (stereo not given),inactive: 27.6%
29,CP(=O)(Nc1ccccc1)Oc1ccc(F)cc1 (stereo not given),inactive: -19%
30,CP(=O)(Nc1ccccc1F)Oc1ccccc1 (stereo not given),inactive: 6.8%
